Bioassay records deposited in PubChem BioAssay by Broad Institute.
Rows were chosen to be rich in hits. Some 1.3% of all compounds tested hit in one or more screens of this group.
LGR2 antag – inhibitors of bursicon-induced Drosophila LGR2 receptor cAMP signaling; inhibition, % at 9.99 µM; HEK293 LGR2, CRE-luciferase, bursicon-stimulated, 4 h; hit rate 0.35% among 380,000; AID 720647;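 active means drop in luminescence signal, shown as inhibition above about 50% in the replicate tests, limit read from the data, passing the limit was not always enough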;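 further: agonist challenge used bursicon conditioned medium at about half maximal strength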
EWS-Fli inh – blocks EWS/Fli oncoprotein-driven transcription; A673 NR0B1-luciferase reporter, viability-normalised; inhibition, % at 12.6 µM; hit rate 0.67% among 350,000;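 active means mean inhibition of at least 50% after viability correction, with every replicate also passing that limit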;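 further: firefly luciferase signal divided by Alamar Blue viability fluorescence both relative to DMSO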
Yeast UUG start – yeast start codon fidelity modulation | S. cerevisiae UUG-firefly luciferase reporter, luminescence/redox ratio | activity score, % at 18.7 µM | hit rate 0.13% among 350,000 | AID 602363;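 active means replicate mean at a twofold rise or more, about +100% in these data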;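 further: firefly luciferase made from a UUG start codon reports start codon fidelity; reporter light over untreated wells divided by growth signal over untreated wells; some hits fall short of that in this replicate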
PglD inh – inhibitors of Campylobacter jejuni PglD acetyltransferase. AID 602405. hit rate 0.098% among 360,000. inhibition, % at 12.5 µM. purified PglD enzyme, DTNB colorimetric CoA detection; in the data active means inhibition above about 16%, passing the limit was not always enough
CFTR F508del cor – CFTR F508del correction in bronchial cells; CFBE cells, YFP halide quenching; stimulated with forskolin plus potentiator P3; % fluorescence drop versus neutral controls; activity (quench increase), % at 7.58 µM; hit rate 0.36% among 350,000; AID 720511;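 active means mean added fluorescence quench of at least 8% versus neutral control, with both replicates also reaching 8%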;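 further: cells transiently co-express mutant CFTR-F508del with the halide-sensitive YFP; corrector assay measuring rescue of mutant channel to the surface after 24 h compound exposure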
miR122 inh – inhibitors of miR-122 in Huh7 cells; Huh7 miR-122 Renilla luciferase sensor, 48 h; neutral wells = 0, positive control = 100; activation (reporter increase), % at 12.5 µM; hit rate 0.3% among 340,000; AID 602342;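 active means mean replicate activation score at least 90 and every replicate individually at or above 90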;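 further: higher luciferase means less miR-122 activity so hits act as miR-122 inhibitors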
Large screens that a line does not name were inactive; ! = not confirmed by another sample; [ ] = another dose, or the depositor's remark.

O=C(/C=C/c1cccs1)c1ccc(N2CCOCC2)cc1	LGR2 antag 92.7
COc1ccc(S(=O)(=O)NCCc2ccccc2)cc1OC	none (no result: CFTR F508del cor, miR122 inh)
COCCCNS(=O)(=O)c1ccc(OC)c(Cl)c1Cl	none
CCCCCCNS(=O)(=O)c1ccc(OC)c(OC)c1	miR122 inh 203.2 (no result: LGR2 antag, EWS-Fli inh, CFTR F508del cor)
CCCCNS(=O)(=O)c1ccc(OC)c(Cl)c1Cl	miR122 inh 221.8 (no result: LGR2 antag, EWS-Fli inh, CFTR F508del cor)
Cn1cnc2nc(Cl)nc(Cl)c21	none (no result: Yeast UUG start, PglD inh)
CCCCOc1ccc(C(C)NC(=O)C2CCCN(S(=O)(=O)CCC)C2)cc1 (configuration not stated)	none (no result: EWS-Fli inh, CFTR F508del cor)
CC(=O)O[C@H]1C(=O)[C@@]2(C)[C@H]([C@H](OC(=O)c3ccccc3)[C@]3(O)C[C@H](OC(=O)[C@H](O)C(NC(=O)c4ccccc4)c4ccccc4)C(C)=C1C3(C)C)[C@]1(OC(C)=O)CO[C@@H]1C[C@@H]2O (some centres not stated)	EWS-Fli inh 65.8, CFTR F508del cor 10.6
CCCCCC(=O)N[C@@H](c1ccccc1)[C@@H](O)C(=O)O[C@H]1C[C@@]2(O)[C@@H](OC(=O)c3ccccc3)C3[C@](C)(C(=O)[C@H](OC(C)=O)C(=C1C)C2(C)C)[C@@H](O)C[C@H]1OC[C@@]31OC(C)=O (some centres not stated)	EWS-Fli inh 57.3
CC(=O)O[C@H]1C(=O)[C@@]2(C)[C@H]([C@H](OC(=O)c3ccccc3)[C@]3(O)C[C@H](OC(=O)[C@H](O)[C@@H](NC(=O)c4ccccc4)c4ccccc4)C(C)=C1C3(C)C)[C@]1(OC(C)=O)CO[C@@H]1C[C@@H]2O	EWS-Fli inh 65.2
Cc1ccc(S(=O)(=O)N/N=C\c2cn(CC(N)=O)c3ccccc23)cc1C	none (no result: miR122 inh)
NC(=O)Cn1cc(/C=N\NS(=O)(=O)c2ccc(Cl)cc2)c2ccccc21	miR122 inh 127.8
CCCCc1cc(=O)oc2cc(OCC(=O)N3C[C@H]4C[C@@H](C3)c3cccc(=O)n3C4)ccc12	none
NCCCNc1nc(N)c([N+](=O)[O-])c(NC2CCCCC2)n1	LGR2 antag 54.4 (no result: miR122 inh)
Cc1ccc(C2CC(c3cccs3)=NN2C(=O)CCl)cc1 (configuration not stated)	EWS-Fli inh 64.8
CCC(=O)N1N=C(c2cccs2)CC1c1ccc(C)cc1 (configuration not stated)	none
COc1ccccc1NC(=O)CSc1nnc(Cc2cccs2)n1C	none (no result: Yeast UUG start, PglD inh, miR122 inh)
COc1ccc(NC(=O)CSc2nnc(Cc3cccs3)n2C)cc1	CFTR F508del cor 10.3 (no result: Yeast UUG start, PglD inh)
COc1cc(C(=O)Nc2ccccn2)cc(OC)c1OC	none (no result: LGR2 antag, EWS-Fli inh, CFTR F508del cor)
COc1cc(C(=O)Nc2ccccc2C(=O)Nc2ccccn2)cc(OC)c1OC	CFTR F508del cor 12.7
O=C(Nc1ccc(Cl)c([N+](=O)[O-])c1)C(NCCCO)c1ccccc1 (configuration not stated)	miR122 inh 226.4 (no result: EWS-Fli inh, CFTR F508del cor)
CCCC(=NCCc1c(C)[nH]c2ccccc12)C1=C(O)CC(c2ccccc2)CC1=O (configuration not stated)	none (no result: EWS-Fli inh, CFTR F508del cor)
CCCCC(=NCCc1c(C)[nH]c2ccccc12)C1=C(O)CC(c2ccccc2)CC1=O (configuration not stated)	EWS-Fli inh 50.8, CFTR F508del cor 8.6
CCOC(=O)c1[nH]c2ccc(OC)cc2c1NC(=O)CCN1CCc2ccccc2C1	none (no result: LGR2 antag, EWS-Fli inh, CFTR F508del cor)
CC(C)C(NC(=O)CSCc1ccc([N+](=O)[O-])cc1)C(C)C	EWS-Fli inh 77.6 (no result: Yeast UUG start, PglD inh, CFTR F508del cor, miR122 inh)
O=C(CSCc1ccc([N+](=O)[O-])cc1)NC1CC1	EWS-Fli inh 83.1 (no result: Yeast UUG start, PglD inh, CFTR F508del cor, miR122 inh)
C[C@@H]1CN([C@H](C)CO)C(=O)c2cccc(NC(=O)C3CC3)c2O[C@H]1CN(C)Cc1ccc(C(F)(F)F)cc1	miR122 inh 106.4[16.7 µM]
C[C@@H]1CN([C@H](C)CO)C(=O)c2cccc(NC(=O)Nc3ccc(F)cc3)c2O[C@H]1CN(C)Cc1ccc(C(F)(F)F)cc1	miR122 inh 165.1[16.7 µM]
C[C@H]1CN([C@@H](C)CO)C(=O)c2cccc(NS(=O)(=O)c3cccs3)c2O[C@@H]1CN(C)Cc1ccc(C(F)(F)F)cc1	miR122 inh 118.9[16.7 µM]
C[C@H](CO)N1C[C@H](C)[C@@H](CN(C)Cc2ccc(C(F)(F)F)cc2)Oc2c(NC(=O)c3cnccn3)cccc2C1=O	miR122 inh 113.9[16.7 µM]
C[C@H](CO)N1C[C@H](C)[C@@H](CN(C)Cc2ccc(C(F)(F)F)cc2)Oc2c(NC(=O)Nc3ccc(F)cc3)cccc2C1=O	none
CCn1ncc(CN2CCN(Cc3ccc(OC)c(C)c3C)C(CCO)C2)c1C (configuration not stated)	none
C[C@@H]1CN([C@@H](C)CO)S(=O)(=O)c2ccc(-c3ccc(C(=O)N(C)C)cc3)cc2O[C@@H]1CN(C)C(=O)C1CCCCC1	none
CN1C(=O)c2cc(NC(=O)c3ccccc3)ccc2OC[C@@H]2O[C@H](CC(=O)O)CC[C@H]21	none
O=C(Nc1cccc(C(F)(F)F)c1)Nc1nnc([C@H]2C[C@H](O)[C@@H](CO)O2)s1	none
Cc1noc(C)c1NC(=O)Nc1cccc2c1O[C@H](CN(C)C(=O)Nc1cccc3ccccc13)[C@@H](C)CN([C@@H](C)CO)C2=O	none
C[C@H](CO)N1C[C@H](C)[C@@H](CN(C)Cc2ccccc2)Oc2c(NC(=O)C3CC3)cccc2C1=O	miR122 inh 90.7!
C[C@@H]1CN([C@H](C)CO)C(=O)c2cccc(NC(=O)C3CC3)c2O[C@@H]1CN(C)Cc1ccccc1	none
Cc1noc(C)c1S(=O)(=O)N(C)C[C@@H]1Oc2c(NC(=O)C3CCCCC3)cccc2C(=O)N([C@H](C)CO)C[C@@H]1C	miR122 inh 197.5[16.7 µM]
Cc1noc(C)c1NC(=O)Nc1cccc2c1O[C@H](CN(C)C(=O)Nc1cccc3ccccc13)[C@@H](C)CN([C@H](C)CO)C2=O	PglD inh 15.8
COc1ccc(CN(C)C[C@H]2Oc3c(NC(=O)NC4CCCCC4)cccc3C(=O)N([C@H](C)CO)C[C@@H]2C)cc1	miR122 inh 255.2[16.7 µM]
Cc1noc(C)c1S(=O)(=O)N(C)C[C@H]1Oc2c(NC(=O)C3CCCCC3)cccc2C(=O)N([C@H](C)CO)C[C@H]1C	none
Cc1cccc(OCCCN2C(=O)C(=O)c3cc(C)ccc32)c1	none
C[C@H](CO)N1C[C@H](C)[C@H](CN(C)C(=O)Nc2ccc(F)cc2)Oc2c(NS(=O)(=O)c3ccccc3)cccc2C1=O	none
C[C@H](CO)N1C[C@H](C)[C@@H](CN(C)C(=O)Nc2ccc(F)cc2)Oc2c(NS(=O)(=O)c3ccccc3)cccc2C1=O	miR122 inh 128.4[16.7 µM]
C[C@@H]1CN([C@@H](C)CO)C(=O)c2cccc(NC(=O)Nc3ccc(C(F)(F)F)cc3)c2O[C@@H]1CN(C)C(=O)Nc1cccc2ccccc12	LGR2 antag 67.3
